Measured values: patent US7875618B2, “Substituted imidazo[1,5-a]quinoxalines useful as inhibitors of phosphodiesterase 10 for the treatment of neurological and other disorders” (Wyeth, priority 2007, dated 2011)

Protein sequences, listed by entry. Tags and fused reporters are not part of them. Residues count along the entry.
UniProt Q9Y233, 1-779 isoform 1: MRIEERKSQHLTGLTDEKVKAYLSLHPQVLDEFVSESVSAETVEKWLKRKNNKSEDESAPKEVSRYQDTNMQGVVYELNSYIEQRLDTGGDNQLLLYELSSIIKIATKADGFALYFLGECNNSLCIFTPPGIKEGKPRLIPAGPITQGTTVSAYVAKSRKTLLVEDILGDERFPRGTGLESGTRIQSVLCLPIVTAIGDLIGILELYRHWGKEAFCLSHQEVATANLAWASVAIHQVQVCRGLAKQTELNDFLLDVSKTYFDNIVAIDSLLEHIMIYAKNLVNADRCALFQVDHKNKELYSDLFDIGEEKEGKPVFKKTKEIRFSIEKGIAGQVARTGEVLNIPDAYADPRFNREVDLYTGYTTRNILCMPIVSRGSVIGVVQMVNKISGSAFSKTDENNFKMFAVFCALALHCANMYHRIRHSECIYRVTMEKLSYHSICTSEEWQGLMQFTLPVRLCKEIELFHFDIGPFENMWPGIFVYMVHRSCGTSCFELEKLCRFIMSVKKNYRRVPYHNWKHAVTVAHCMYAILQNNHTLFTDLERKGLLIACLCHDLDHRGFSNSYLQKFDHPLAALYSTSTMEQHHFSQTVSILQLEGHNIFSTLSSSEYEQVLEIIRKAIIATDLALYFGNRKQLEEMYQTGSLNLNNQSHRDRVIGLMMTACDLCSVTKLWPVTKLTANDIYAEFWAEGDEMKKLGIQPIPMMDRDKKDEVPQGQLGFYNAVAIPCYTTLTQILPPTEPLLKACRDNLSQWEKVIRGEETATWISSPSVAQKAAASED

Target: human recombinant PDE10A (Homo sapiens, UniProt Q9Y233)
Assay: Inhibition of human recombinant PDE10A ([3H]-cAMP SPA, Method B)
Assay type: biochemical
Conditions: read-out: PDE10 inhibition IC50 [nM] PDE10A human

CCCc1nc(C)c2c(Cl)nc3ccc(OCC4CC4)cc3n12
IC50: 10 to 100 nM
